Test results published in patent publication US8871753B2, “Macrocyclic compounds and their use as kinase inhibitors” (Incyte Corporation, priority 2008, dated 2014).

Sequences of proteins named here, by UniProt entry; tags and fusion partners are left off. Residues count along the entry.
UniProt P29597, whole entry: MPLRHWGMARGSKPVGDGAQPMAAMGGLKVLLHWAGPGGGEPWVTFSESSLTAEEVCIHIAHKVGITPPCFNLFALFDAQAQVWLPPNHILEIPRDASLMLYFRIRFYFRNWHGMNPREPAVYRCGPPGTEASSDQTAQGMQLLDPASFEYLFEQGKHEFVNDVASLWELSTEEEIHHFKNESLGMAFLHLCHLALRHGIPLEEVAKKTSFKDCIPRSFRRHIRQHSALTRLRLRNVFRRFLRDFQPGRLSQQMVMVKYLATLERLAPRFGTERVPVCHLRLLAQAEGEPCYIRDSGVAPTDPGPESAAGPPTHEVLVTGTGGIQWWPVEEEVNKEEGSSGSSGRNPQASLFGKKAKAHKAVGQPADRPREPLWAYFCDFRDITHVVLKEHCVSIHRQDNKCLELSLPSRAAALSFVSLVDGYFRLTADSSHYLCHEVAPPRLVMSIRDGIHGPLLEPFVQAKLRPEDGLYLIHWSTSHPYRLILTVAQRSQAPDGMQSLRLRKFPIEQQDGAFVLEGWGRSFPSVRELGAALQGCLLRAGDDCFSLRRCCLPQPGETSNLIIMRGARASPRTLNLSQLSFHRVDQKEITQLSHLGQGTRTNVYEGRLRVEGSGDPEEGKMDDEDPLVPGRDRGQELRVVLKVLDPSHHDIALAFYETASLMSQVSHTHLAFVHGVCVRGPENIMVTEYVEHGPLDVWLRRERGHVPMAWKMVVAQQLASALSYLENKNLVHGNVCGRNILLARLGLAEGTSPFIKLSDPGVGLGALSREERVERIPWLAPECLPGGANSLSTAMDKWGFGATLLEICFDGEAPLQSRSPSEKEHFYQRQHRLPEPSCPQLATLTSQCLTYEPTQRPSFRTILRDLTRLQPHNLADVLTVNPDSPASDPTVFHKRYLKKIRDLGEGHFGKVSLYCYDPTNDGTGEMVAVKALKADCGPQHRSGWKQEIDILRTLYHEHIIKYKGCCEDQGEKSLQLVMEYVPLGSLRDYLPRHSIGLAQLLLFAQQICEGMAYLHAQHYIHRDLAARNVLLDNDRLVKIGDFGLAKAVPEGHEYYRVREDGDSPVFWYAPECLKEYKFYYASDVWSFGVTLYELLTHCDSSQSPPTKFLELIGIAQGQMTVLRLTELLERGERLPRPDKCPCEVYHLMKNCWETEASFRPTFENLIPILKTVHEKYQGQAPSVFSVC
UniProt O60674, 828-1132 limits assumed: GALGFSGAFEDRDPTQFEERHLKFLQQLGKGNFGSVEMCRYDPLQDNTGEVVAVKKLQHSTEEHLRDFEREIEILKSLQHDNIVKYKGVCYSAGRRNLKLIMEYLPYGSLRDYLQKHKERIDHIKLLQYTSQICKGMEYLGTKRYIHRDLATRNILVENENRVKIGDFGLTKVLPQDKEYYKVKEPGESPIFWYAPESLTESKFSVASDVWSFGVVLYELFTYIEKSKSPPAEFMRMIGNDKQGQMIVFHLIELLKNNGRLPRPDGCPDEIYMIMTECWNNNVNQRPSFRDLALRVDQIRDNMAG
UniProt P52333, 781-1124 limits assumed: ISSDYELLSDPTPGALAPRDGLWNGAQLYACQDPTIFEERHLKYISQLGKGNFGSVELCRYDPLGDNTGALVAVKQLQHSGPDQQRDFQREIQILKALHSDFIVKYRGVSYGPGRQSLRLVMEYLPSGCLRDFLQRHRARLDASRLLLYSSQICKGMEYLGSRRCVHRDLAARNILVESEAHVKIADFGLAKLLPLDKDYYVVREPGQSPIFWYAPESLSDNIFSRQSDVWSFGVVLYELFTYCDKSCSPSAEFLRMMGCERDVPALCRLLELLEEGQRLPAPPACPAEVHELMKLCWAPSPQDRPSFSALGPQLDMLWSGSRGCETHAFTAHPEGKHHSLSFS
UniProt Q9UM73, 19-1620 limits assumed: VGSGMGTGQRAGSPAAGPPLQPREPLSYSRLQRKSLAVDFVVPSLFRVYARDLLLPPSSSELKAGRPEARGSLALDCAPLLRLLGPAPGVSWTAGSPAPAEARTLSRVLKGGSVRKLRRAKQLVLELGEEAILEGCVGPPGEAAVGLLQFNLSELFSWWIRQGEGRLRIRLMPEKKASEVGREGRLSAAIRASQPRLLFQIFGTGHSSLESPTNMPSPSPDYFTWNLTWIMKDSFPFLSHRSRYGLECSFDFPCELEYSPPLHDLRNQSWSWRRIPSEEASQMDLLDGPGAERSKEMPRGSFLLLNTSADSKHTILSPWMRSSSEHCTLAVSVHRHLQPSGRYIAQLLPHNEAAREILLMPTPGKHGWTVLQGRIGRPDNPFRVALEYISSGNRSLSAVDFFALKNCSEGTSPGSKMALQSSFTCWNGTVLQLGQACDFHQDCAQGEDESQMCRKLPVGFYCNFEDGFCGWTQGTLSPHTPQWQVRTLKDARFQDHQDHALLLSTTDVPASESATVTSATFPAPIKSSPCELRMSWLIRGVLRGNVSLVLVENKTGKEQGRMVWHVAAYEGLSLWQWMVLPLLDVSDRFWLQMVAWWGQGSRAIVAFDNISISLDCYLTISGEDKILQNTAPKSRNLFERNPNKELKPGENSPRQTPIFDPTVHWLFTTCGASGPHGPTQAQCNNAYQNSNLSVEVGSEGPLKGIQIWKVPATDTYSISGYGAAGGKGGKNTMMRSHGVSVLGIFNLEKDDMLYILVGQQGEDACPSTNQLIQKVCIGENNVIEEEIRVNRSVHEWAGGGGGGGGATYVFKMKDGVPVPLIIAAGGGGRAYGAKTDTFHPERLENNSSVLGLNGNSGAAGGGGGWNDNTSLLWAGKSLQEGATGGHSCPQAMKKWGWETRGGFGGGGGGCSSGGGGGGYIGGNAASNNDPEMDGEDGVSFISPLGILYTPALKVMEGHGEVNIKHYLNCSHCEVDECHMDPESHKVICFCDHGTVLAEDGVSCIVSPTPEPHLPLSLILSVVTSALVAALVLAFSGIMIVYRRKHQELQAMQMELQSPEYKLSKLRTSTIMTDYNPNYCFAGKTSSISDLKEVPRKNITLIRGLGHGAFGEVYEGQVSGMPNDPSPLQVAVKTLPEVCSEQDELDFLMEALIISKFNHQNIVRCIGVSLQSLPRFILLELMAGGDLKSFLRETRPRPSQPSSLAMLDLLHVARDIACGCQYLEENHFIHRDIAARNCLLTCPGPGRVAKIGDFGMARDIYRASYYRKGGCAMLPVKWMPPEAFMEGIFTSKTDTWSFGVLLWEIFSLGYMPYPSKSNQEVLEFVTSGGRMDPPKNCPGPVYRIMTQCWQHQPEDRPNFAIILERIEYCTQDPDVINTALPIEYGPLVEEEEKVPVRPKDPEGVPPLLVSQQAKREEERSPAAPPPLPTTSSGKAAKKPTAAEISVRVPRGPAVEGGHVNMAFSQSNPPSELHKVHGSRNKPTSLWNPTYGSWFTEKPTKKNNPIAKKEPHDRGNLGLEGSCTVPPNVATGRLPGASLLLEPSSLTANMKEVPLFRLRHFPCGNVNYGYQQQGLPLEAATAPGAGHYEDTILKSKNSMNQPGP
UniProt P23458, 849-1154 limits assumed: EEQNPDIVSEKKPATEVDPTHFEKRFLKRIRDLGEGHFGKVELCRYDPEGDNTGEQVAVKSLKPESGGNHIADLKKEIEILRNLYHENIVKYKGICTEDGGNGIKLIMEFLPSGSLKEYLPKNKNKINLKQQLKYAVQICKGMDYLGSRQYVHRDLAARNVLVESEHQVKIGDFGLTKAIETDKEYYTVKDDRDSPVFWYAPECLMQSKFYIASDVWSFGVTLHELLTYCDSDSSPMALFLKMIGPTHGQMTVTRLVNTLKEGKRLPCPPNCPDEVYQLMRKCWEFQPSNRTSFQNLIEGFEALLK

Assays:
TYK2 = TYK2 (Homo sapiens, UniProt P29597); assay: TYK2 kinase inhibition (Table A1); type: biochemical; conditions: read-out: TYK2 IC50; Table B1; tested form: trifluoroacetate
[1] = target: human JAK2 (a.a. 828-1132) (Homo sapiens, UniProt O60674); assay: In vitro JAK kinase assay (HTRF, phosphorylation of a biotinylated peptide), JAK2; conditions: read-out: JAK2 IC50; Table B1; tested form: trifluoroacetate
[2] = target: human JAK3 (a.a. 781-1124) (Homo sapiens, UniProt P52333); assay: In vitro JAK kinase assay (HTRF, phosphorylation of a biotinylated peptide), JAK3; conditions: read-out: JAK3 IC50; Table B1; tested form: trifluoroacetate
[3] = target: Recombinant Human Anaplastic Lymphoma Kinase (Homo sapiens, UniProt Q9UM73); assay: ALK HTRF kinase assay; conditions: read-out: ALK IC50; Table B1; cells without percent sign; tested form: trifluoroacetate
[4] = target: human JAK1 (a.a. 837-1142) (Homo sapiens, UniProt P23458); assay: In vitro JAK kinase assay (HTRF, phosphorylation of a biotinylated peptide), JAK1; conditions: read-out: JAK1 IC50; Table B1; tested form: trifluoroacetate

## Cc1oncc1S(=O)(=O)Nc1ccc2cc1CCc1cccc(c1)Nc1ncc(Cl)c(n1)N2
TYK2
  IC50: 0.84 nM
[1]
  IC50: 0.17 nM
[2]
  IC50: 12 nM
[3]
  IC50: 1200 nM
[4]
  IC50: 0.8 nM
